Assay results published in patent US20240217973A1, “IMIDAZOPYRIDINE COMPOUNDS AND USE THEREOF” (MEDSHINE DISCOVERY INC., priority 2021, published 2024).

Protein sequences, listed by entry. Tags and fused reporters are not part of them.
UniProt P11712, whole entry: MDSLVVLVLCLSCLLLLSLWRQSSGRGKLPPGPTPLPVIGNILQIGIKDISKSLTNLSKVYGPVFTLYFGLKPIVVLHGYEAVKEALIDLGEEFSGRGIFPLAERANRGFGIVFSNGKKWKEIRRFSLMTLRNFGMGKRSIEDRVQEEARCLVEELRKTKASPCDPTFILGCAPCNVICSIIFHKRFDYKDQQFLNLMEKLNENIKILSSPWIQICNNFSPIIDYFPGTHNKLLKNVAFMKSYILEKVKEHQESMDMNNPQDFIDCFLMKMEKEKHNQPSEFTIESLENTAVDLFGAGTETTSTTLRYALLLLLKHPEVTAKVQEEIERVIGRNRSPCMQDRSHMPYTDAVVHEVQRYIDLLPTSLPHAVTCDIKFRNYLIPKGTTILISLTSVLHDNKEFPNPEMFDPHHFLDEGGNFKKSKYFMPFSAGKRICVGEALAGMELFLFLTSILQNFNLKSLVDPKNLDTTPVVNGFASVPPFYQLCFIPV
UniProt P10635, whole entry: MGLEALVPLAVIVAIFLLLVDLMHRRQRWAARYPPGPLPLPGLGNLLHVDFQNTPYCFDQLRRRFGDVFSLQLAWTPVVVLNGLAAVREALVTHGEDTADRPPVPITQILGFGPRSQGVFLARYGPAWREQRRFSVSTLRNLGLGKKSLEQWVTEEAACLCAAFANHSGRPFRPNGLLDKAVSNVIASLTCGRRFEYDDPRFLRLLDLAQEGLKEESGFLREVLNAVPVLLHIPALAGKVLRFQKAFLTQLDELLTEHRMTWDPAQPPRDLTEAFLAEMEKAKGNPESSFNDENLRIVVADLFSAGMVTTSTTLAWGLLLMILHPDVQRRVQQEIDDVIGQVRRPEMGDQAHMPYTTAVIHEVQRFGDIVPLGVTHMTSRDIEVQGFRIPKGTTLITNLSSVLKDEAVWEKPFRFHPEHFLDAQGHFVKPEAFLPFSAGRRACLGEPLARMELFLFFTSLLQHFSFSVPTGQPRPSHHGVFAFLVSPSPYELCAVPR
UniProt P33261, whole entry: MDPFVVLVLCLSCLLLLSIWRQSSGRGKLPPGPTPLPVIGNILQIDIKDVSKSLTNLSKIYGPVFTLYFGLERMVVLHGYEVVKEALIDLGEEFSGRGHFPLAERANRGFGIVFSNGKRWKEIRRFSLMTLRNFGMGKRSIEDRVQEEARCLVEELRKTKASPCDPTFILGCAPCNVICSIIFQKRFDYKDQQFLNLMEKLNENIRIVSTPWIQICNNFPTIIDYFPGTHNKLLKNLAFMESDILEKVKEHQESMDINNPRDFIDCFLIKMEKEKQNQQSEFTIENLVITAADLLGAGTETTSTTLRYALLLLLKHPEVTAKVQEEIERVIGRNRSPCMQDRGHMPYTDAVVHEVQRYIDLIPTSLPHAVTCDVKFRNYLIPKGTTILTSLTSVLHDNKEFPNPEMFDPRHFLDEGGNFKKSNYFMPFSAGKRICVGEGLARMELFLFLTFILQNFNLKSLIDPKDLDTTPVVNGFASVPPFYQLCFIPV
UniProt P08684, whole entry: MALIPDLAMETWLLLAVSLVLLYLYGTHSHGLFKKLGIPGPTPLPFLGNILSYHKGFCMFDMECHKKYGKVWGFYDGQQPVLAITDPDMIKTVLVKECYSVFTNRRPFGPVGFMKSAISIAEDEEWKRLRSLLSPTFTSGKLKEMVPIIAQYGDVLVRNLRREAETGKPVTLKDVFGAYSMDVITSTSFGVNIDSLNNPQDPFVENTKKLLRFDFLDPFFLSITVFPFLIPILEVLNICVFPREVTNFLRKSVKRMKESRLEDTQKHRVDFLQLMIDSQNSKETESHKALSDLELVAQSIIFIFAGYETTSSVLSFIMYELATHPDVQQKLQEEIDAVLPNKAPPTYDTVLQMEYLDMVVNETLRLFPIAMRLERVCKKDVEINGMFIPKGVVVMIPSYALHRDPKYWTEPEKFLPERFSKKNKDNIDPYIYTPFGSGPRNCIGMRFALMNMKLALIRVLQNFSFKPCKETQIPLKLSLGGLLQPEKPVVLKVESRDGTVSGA

What was measured:
[1] = Pharmacokinetic evaluation of compounds in mice; conditions: CD-1 male mice
Method: Experimental purpose: To test the in vivo pharmacokinetic data of compounds in CD-1 mice.
(§1) The compound was mixed with the solvent 5% DMSO/5% Solutol/90% H2O, vortexed and sonicated to prepare a 0.5 mg/mL clear solution. CD-1 male mice aged 7 to 10 weeks were selected, and administered the candidate compound solution intravenously. Whole blood was collected for a certain period of time, and plasma was prepared. The drug concentration was analyzed by LC-MS/MS method, and pharmacokinetic parameters were calculated by Phoenix WinNonlin software (Pharsight Company, USA).
as §1, with “orally.” for “intravenously.”

HPBMC cells = assay: HPBMC experiment: CD69 on anti-human IgM stimulated B cells, flow cytometry; conditions: read-out: CD69 IC50, B cells isolated from PBMC, 48 hours
Method: • 1) Medium: RPMI Medium 1640+1% P/S+10% FBS • 2) MACS buffer: 2% FBS+1 mM EDTA in DPBS • 3) Staining buffer: DPBS+2% FBS • 1.2 Dilution of Compounds and Anti-Human IgM
The initial concentration of the compound to be tested was […], 3-fold dilution, 9 points, and it was added to a 96 well plate after dilution, 50 μL/ well.
The anti-human IgM was diluted according to Table 2 below, and added to the 96 well plate after dilution, 50 μL/well.
• 1) PBMC was removed from a liquid nitrogen tank, then resuscitated and thawed in a 37° C. water bath; • 2) Using a B cell olation kit, B cells were isolated from PBMC according to the instructions, and their viability and number were calculated using a cell counter.
Table 10 Number and viability of PBMC and B cells • 3) The cells were resuspended with 1640 culture medium to a final concentration of 1 M/mL. • 4) The B cells were spread at 0.1 M/ well (100 μL) into a 96-well flat-bottom plate already containing the compound and anti-IgM. • 5) The plate was incubated in a 37° C. CO2 incubator for 48 hours; […]

CYP2C9 = CYP2C9 (Homo sapiens (Human), UniProt P11712); assay: Inhibition of cytochrome P450 enzyme in vitro, human liver microsomes; format: in vitro ADME; conditions: read-out: CYP450 IC50 2C9
Method: (§2) To investigate the activity of compounds on human liver microsomal CYP450 enzyme, the compounds were tested for the inhibitory effect of five major subtypes of human hepatocyte CYP450 enzymes (CYP1A2, 2C9, 2C19, 2D6 and 3A4) using LC-MS/MS method. The IC50 value was used as an indicator for compound screening and analysis. • 1) Working solutions of test compounds and standard inhibitors were prepared (100×); • 2) The microsomes were removed from the −80° C. refrigerator, thawed on ice, labeled with the date, and returned to the refrigerator immediately after use; • 3) 20 μL of substrate solution was added to the corresponding well; • 4) 20 μL of phosphate buffer salt solution was added to the blank well; • 5) 2 μL of test compound and positive control working solution were added into the corresponding wells; • 6) 2 μL of solvent was added to the wells without the inhibitors and blank wells; • 7) Working solution of human liver microsome was prepared; • 8) 158 μL of HLM working solution was added to all wells of the incubation plate; • 9) The plate was preheated in a 37° C. water bath for about 10 minutes; • 10) NADPH cofactor solution was prepared; • 11) 20 μL of NADPH cofactor was added to all incubation wells; • 12) All CYP was mixed and incubated in a 37° C. water bath for 10 minutes; • 13) At the time point, the reaction was terminated by adding 400 μL of cold solution (200 ng/ml acetonitrile solution of tolbutamide and 200 ng/ml acetonitrile solution of Labetalol); • 14) The sample was centrifuged at 4000 rpm for 20 minutes to precipitate proteins; • 15) 200 μL of supernatant was transferred into 100 μL of high performance liquid chromatography water and shaked well for 10 minutes; • 16) LC/MS/MS analysis was started.

CYP2D6 = CYP2D6 (Homo sapiens (Human), UniProt P10635); assay: as above; format: in vitro ADME; conditions: read-out: CYP450 IC50 2D6
Method: as §2

CYP2C19 = CYP2C19 (Homo sapiens (Human), UniProt P33261); assay: as above; format: in vitro ADME; conditions: read-out: CYP450 IC50 2C19
Method: as §2

CYP3A4 = CYP3A4 (Homo sapiens (Human), UniProt P08684); assay: as above; format: in vitro ADME; conditions: read-out: CYP450 IC50 3A4
Method: as §2

[2] = IV, 1.0 mg/kg (002), 1.2 mg/kg (003B)
[3] = PO, 2.9 mg/kg (002), 2.85 mg/kg (003B)

Compound: Nc1nccc2c1n(-c1ccc(Oc3ccccc3)cc1)c(=O)n2C1CCN(C(=O)/C=C/CF)C1 (single isomer, unassigned) [Compound 003B]
- AUC0-inf [1, 2]: 445 nM·h
- C0 [1, 2]: 4.24 µM
- Cl [1, 2]: 4.74 L/h/kg
- T1/2 [1, 2]: 16.2 min
- Vd [1, 2]: 0.85 L/kg
- AUC0-inf [1, 3]: 602 nM·h
- Cmax [1, 3]: 1 µM
- F % [1, 3]: 45.1%
- T1/2 [1, 3]: 101 min
- Tmax [1, 3]: 4.98 min
- IC50 (HPBMC cells): 0.002 µM
- IC50 (CYP2C9): 20.7 µM
- IC50 (CYP2D6): > 50 µM
- IC50 (CYP2C19): 31 µM
- IC50 (CYP3A4): > 50 µM
